# Test system: primary HSCs
smiles,measurement,value
"Cc1sc2c(c1C)C(c1ccc(Cl)cc1)=N[C@@H](CC(=O)OC(C)(C)C)c1nnc(C)n1-2 [JQ1, (S)-tert-butyl 2-(4-(4-chlorophenyl)-2,3,9-trimethyl-6H-thieno[3,2-f][1,2,4]triazolo[4,3-a][1,4]diazepin-6-yl)acetate]",Ddah1 log2(fold_change),−1.8403
same,Ddr1 log2(fold_change),0.8654
same,Ddr2 log2(fold_change),0.6474
same,Def6 log2(fold_change),−3.1418
same,Des log2(fold_change),−3.8145
same,Dhrs1 log2(fold_change),−0.4106
same,Diap3 log2(fold_change),0.7607
same,Dkk2 log2(fold_change),−3.8705
same,Dlg4 log2(fold_change),−0.7042
same,Dlgap5 log2(fold_change),0.6367
same,Dmpk log2(fold_change),−1.738
same,Dnajb4 log2(fold_change),−0.6743
same,Dnpep log2(fold_change),−0.3504
same,Dok5 log2(fold_change),−2.7837
same,Dpep1 log2(fold_change),−4.4821
same,Dpysl3 log2(fold_change),−2.1905
same,Dst log2(fold_change),−0.7345
same,Dynlrb1 log2(fold_change),−0.3298
same,Dzip1l log2(fold_change),−0.475
same,Dzip1 log2(fold_change),2.083
same,Dzip3 log2(fold_change),0.4236
same,E2f1 log2(fold_change),0.7425
same,Eda2r log2(fold_change),−0.5731
same,Efemp1 log2(fold_change),2.802
same,Efemp2 log2(fold_change),−0.6136
same,Egr1 log2(fold_change),1.057
same,Elfn1 log2(fold_change),−3.7851
same,Eln log2(fold_change),−6.1713
same,Elovl5 log2(fold_change),0.6145
same,Emilin2 log2(fold_change),1.166
same,Emp2 log2(fold_change),−2.2254
same,Eno2 log2(fold_change),0.4371
same,Enpp5 log2(fold_change),−0.2509
same,Epdr1 log2(fold_change),−0.5916
same,Epha7 log2(fold_change),1.242
same,Ephb3 log2(fold_change),0.6646
same,Ephx1 log2(fold_change),0.7179
same,Esrp2 log2(fold_change),−3.1358
same,Etv4 log2(fold_change),−2.9572
same,Evc2 log2(fold_change),−0.7253
same,Evc log2(fold_change),0.5139
same,Ext1 log2(fold_change),−0.3121
same,Ext2 log2(fold_change),0.4643
same,Extl3 log2(fold_change),−0.5052
same,F3 log2(fold_change),−3.0325
same,Fah log2(fold_change),−2.1282
same,Fam19a5 log2(fold_change),−1.8682
same,Fam20a log2(fold_change),−0.248
same,Fam38b log2(fold_change),−2.2611
same,Fam110c log2(fold_change),−0.4708
same,Fam114a1 log2(fold_change),−0.8465
same,Fam115c log2(fold_change),−0.708
same,Fam117a log2(fold_change),1.187
same,Fam123b log2(fold_change),0.8526
same,Fam132a log2(fold_change),−1.6658
same,Fam132b log2(fold_change),−3.2368
same,Fam149a log2(fold_change),−0.623
same,Fam171b log2(fold_change),0.4558
same,Fam189b log2(fold_change),−0.5628
same,Fam198b log2(fold_change),−5.0284
same,Fam83d log2(fold_change),1.503
same,Fap log2(fold_change),−1.674
same,Fblim1 log2(fold_change),−2.7147
same,Fbln1 log2(fold_change),1.022
same,Fbln5 log2(fold_change),1.8105
same,Fbxo5 log2(fold_change),0.7919
same,Fbxw9 log2(fold_change),−0.4897
same,Fgf18 log2(fold_change),−0.7031
same,Fgfr2 log2(fold_change),1.462
same,Fhl1 log2(fold_change),1.153
same,Fhl2 log2(fold_change),−0.8206
same,Fibin log2(fold_change),−2.7224
same,Figf log2(fold_change),1.282
same,Fignl1 log2(fold_change),0.7783
same,Fkbp7 log2(fold_change),−0.4648
same,Fkbp10 log2(fold_change),−3.1097
same,Fkbp11 log2(fold_change),−2.6721
same,Flnc log2(fold_change),−0.7255
same,Fmod log2(fold_change),−2.4735
same,Fndc1 log2(fold_change),−2.1821
same,Fndc4 log2(fold_change),−2.1512
same,Folr1 log2(fold_change),−2.4816
same,Foxc2 log2(fold_change),−2.3603
same,Foxf2 log2(fold_change),−2.0429
same,Foxm1 log2(fold_change),0.6308
same,Frzb log2(fold_change),−0.2723
same,Fscn1 log2(fold_change),0.7798
same,Fst log2(fold_change),−3.6852
same,Fstl3 log2(fold_change),−2.2285
same,Fxyd6 log2(fold_change),−4.077
same,Fzd2 log2(fold_change),−0.7589
same,Fzd6 log2(fold_change),−2.3725
same,Gabra3 log2(fold_change),−0.6835
same,Gamt log2(fold_change),1.086
same,Gas1 log2(fold_change),0.6451
same,Gas6 log2(fold_change),−0.8639
same,Gbx2 log2(fold_change),−4.2612
same,Gdf6 log2(fold_change),−1.6225
same,Gdf11 log2(fold_change),1.395
same,Ghr log2(fold_change),0.8735
same,Gjb3 log2(fold_change),−7.6272
same,Gjb5 log2(fold_change),−5.5359
same,Gm2a log2(fold_change),−0.2551
same,Gm5424 log2(fold_change),−0.8845
same,Gm12824 log2(fold_change),−3.0317
same,Gm14420 log2(fold_change),−0.5026
same,Gmnn log2(fold_change),0.6461
same,Gmpr log2(fold_change),−0.3076
same,Gpc1 log2(fold_change),−2.0268
same,Gpc4 log2(fold_change),−0.4394
same,Gpm6b log2(fold_change),0.7764
same,Gpr39 log2(fold_change),−2.008
same,Gpr133 log2(fold_change),−2.4415
same,Gpr176 log2(fold_change),−2.941
same,Gpr180 log2(fold_change),−0.3841
same,Gpx1 log2(fold_change),0.4381
same,Gpx8 log2(fold_change),−0.8413
same,Grhpr log2(fold_change),−0.6553
same,Gria3 log2(fold_change),−0.798
same,Gria4 log2(fold_change),−1.702
same,Gstt3 log2(fold_change),0.5967
same,Gyg log2(fold_change),0.7657
same,Gys1 log2(fold_change),−1.8678
same,H1fx log2(fold_change),1.834
same,H2afx log2(fold_change),1.827
same,H19 log2(fold_change),2.0967
same,Hadh log2(fold_change),0.7287
same,Hand2 log2(fold_change),0.6759
same,Has2 log2(fold_change),−5.2936
same,Hebp2 log2(fold_change),−3.411
same,Hhipl1 log2(fold_change),−3.5097
same,Hist1h1c log2(fold_change),1.273
same,Hk2 log2(fold_change),−2.0803
same,Hmcn1 log2(fold_change),1.511
same,Hmgn3 log2(fold_change),1.352
same,Hmmr log2(fold_change),0.676
same,Hoxb2 log2(fold_change),−0.27
same,Hrct1 log2(fold_change),−1.61
same,Hs6st2 log2(fold_change),−1.5564
same,Hsd11b1 log2(fold_change),−3.3117
same,Hspa2 log2(fold_change),1.246
same,Hspb1 log2(fold_change),−0.392
same,Hspb2 log2(fold_change),−2.8717
same,Hspb7 log2(fold_change),−5.3326
same,Hspg2 log2(fold_change),−0.2927
same,Htra3 log2(fold_change),−3.7285
same,Id3 log2(fold_change),0.7078
same,Igf2 log2(fold_change),−2.0054
same,Igf2r log2(fold_change),1.001
same,Igfbp2 log2(fold_change),−2.2293
same,Igfbp3 log2(fold_change),−0.769
same,Igfbp6 log2(fold_change),1.061
same,Iglon5 log2(fold_change),−1.9642
same,Igsf8 log2(fold_change),−0.5384
same,Ikbip log2(fold_change),−0.4313
same,Il1rap log2(fold_change),−0.6045
same,Ildr2 log2(fold_change),0.4541
same,Inpp5a log2(fold_change),−0.5375
same,Isoc2b log2(fold_change),−0.7342
same,Isyna1 log2(fold_change),1.463
same,Itga1 log2(fold_change),1.241
same,Itga5 log2(fold_change),−2.4936
same,Itm2a log2(fold_change),1.209
same,Ivl log2(fold_change),−5.7601
same,Jph2 log2(fold_change),−2.9197
same,Jub log2(fold_change),−0.4248
same,Kank1 log2(fold_change),−0.5094
same,Kazald1 log2(fold_change),−0.367
same,Kcne4 log2(fold_change),−2.4298
same,Kcnmb1 log2(fold_change),−8.5908
same,Kctd15 log2(fold_change),−3.5649
same,Kdm5b log2(fold_change),−0.323
same,Kif1a log2(fold_change),−0.812
same,Kif2c log2(fold_change),0.7386
same,Kif4 log2(fold_change),0.605
same,Kif11 log2(fold_change),0.6087
same,Kif20b log2(fold_change),0.7561
same,Kif21b log2(fold_change),−0.3239
same,Kif22 log2(fold_change),0.5992
same,Kif23 log2(fold_change),0.887

# From US20180325914A1, “INCREASING STORAGE OF VITAMIN A, VITAMIN D AND/OR LIPIDS” (Salk Institute for Biological Studies, priority 2014, published 2018)
